Results: patent US5466700A (priority 1993, dated 1995)
Where two headings read alike, the source gives them in different places.

Legend:
[1] = test system: seizure activity on the EEG; settings: dogs, compared with fentanyl seizures (increase in EEG amplitude and frequency)
[2] = test system: EEG amplitude in anesthetized dogs; assay: EEG amplitude in anesthetized dogs (Example 1, Table 1); settings: 70 min; PT-Z given after fentanyl infusion; mean ± SEM; * differs from time 0

C1CCc2nnnn2CC1 [pentylenetetrazole]
EEG effect of positive control [1]: produced similar effects on the EEG | EEG effect of positive control ([1]; listed as pentyienetetrazole): high voltage, high frequency EEG pattern | EEG amplitude, left hemisphere (occipital frontal leads) [2]: 31.8 ± 4.6 μV | EEG amplitude, right hemisphere (occipital frontal leads) [2]: 34.4 ± 5.7 μV
